Values quoted from earlier work in patent US20040115666A1, “Method for identifying compounds modulating reverse cholesterol transport” (priority 2001, published 2004).

Protein sequences, listed by entry. Tags and fused reporters are not part of them. Lines headed by an entry give the natural chain unless they say otherwise; changes in a name come on top.
UniProt Q96RI1: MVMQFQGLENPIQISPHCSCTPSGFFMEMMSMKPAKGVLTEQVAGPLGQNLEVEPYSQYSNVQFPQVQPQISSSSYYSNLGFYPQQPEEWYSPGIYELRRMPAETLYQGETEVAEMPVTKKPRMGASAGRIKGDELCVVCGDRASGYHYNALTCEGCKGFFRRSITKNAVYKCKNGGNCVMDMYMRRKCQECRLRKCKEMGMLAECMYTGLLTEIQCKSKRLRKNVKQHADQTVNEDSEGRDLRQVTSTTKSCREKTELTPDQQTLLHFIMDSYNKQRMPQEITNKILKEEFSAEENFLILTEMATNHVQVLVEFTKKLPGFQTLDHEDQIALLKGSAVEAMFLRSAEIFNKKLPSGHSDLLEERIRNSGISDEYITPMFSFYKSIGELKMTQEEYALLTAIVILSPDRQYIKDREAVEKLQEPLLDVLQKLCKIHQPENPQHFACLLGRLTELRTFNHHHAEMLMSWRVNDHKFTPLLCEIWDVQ

Target: T1, FXR (Homo sapiens, UniProt Q96RI1)
T1 sequence (Q96RI1 1-472 isoform Q96RI1-2): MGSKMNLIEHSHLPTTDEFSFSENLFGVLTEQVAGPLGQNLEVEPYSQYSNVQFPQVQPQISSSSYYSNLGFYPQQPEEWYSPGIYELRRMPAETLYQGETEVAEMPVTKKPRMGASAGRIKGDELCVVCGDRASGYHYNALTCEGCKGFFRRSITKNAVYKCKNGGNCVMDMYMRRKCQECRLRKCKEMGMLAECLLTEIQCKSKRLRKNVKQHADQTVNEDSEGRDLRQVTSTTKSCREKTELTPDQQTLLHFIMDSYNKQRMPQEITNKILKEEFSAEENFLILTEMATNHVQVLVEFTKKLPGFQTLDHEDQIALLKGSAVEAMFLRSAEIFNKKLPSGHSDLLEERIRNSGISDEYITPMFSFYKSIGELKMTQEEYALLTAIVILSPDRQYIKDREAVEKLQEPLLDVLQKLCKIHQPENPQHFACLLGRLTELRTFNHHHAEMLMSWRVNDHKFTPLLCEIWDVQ
Parameters: expressed in transfected cells; host or cells: HepG2
Settings: Goodwin et al., Mol Cell., 2000; cited from earlier work

CC(C)c1onc(-c2c(Cl)cccc2Cl)c1COc1ccc(/C=C/c2cccc(C(=O)O)c2)c(Cl)c1 [GW4064]
FXR activation: strong specific activator
